According to publication doi:10.1101/2021.04.11.439324 (bioRxiv, 2021):
Numbering of substitutions follows the chain as printed. Names and notes keep the numbering of the source. Values belong to the binder of their own block, whether it stands above or below them.

How the values were obtained:
[1] = molecular target: T1, HSPB1 (S15D, S78D, S82D, I181G, V183G) (UniProt P04792, S15D | S78D | S82D | I181G | V183G); test: NMR titration
[2] = molecular target: T1, HSPB1 (S15D, S78D, S82D, I181G, V183G); test: fluorescence polarisation
DNAJA2 = DNAJA2 (UniProt O60884); test: fluorescence polarisation

- binding result [1]: binds
B1: tau^4R P301S mutant (domain or fragment, UniProt P10636-8 244-372, looked up)
chain: QTAPVPMPDLKNVKSKIGSTENLKHQPGGGKVQIINKKLDLSNVQSKCGSKDNIKHVSGGGSVQIVYKPVDLSKVTSKAGSLGNIHHKPGGGQVEVKSEKLDFKDRVQSKIGSLDNITHVPGGGNKKIE

- binding result [1]: binds
B2: tau^4R P301L mutant (domain or fragment, UniProt P10636-8 244-372, looked up)
chain: B1 chain with S58L

- Kd [2]: 250 ± 26 µM
- Kd (DNAJA2): 43 ± 8 µM
B3: fluorescently tagged tau (tau C291S, C322S, L243C-AF488) (other)
chain: CQTAPVPMPDLKNVKSKIGSTENLKHQPGGGKVQIINKKLDLSNVQSKSGSKDNIKHVPGGGSVQIVYKPVDLSKVTSKSGSLGNIHHKPGGGQVEVKSEKLDFKDRVQSKIGSLDNITHVPGGGNKKIE
modifications: AF488 on L243C
